The source of these data is ChEMBL document CHEMBL4819101, “Design, synthesis and molecular docking studies of thymol based 1,2,3-triazole hybrids as thymidylate synthase inhibitors and apoptosis inducers against breast cancer cells” (Bioorg Med Chem, 2021).

The chains behind the UniProt entries cited, without tags or fusion partners. Where a name states a change or a piece, a line headed by the entry shows the natural chain unless it says otherwise.
UniProt P04818: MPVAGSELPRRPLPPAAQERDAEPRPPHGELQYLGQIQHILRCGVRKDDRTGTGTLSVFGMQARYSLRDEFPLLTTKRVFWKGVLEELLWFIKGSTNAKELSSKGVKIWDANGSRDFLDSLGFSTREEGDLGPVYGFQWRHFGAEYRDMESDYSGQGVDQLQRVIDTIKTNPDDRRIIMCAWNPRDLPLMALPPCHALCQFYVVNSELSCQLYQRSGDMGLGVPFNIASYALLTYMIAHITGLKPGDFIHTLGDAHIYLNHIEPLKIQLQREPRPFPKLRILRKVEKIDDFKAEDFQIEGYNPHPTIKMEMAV

The structures appear in SMILES notation.

The experiment addresses Thymidylate synthase (Homo sapiens, UniProt P04818). The experiment in a line: Potency index, ratio of pemetrexed IC50 to test compound IC50 for inhibition of thymidylate synthase (unknown origin) by spectrophotometric analysis.

For `Cc1ccc(C(C)C)c(OCc2cn(-c3cccc(C(=O)O)c3)nn2)c1`, the Ratio IC50 amounted to 1.26. The same measure for `Cc1ccc(C(C)C)c(OCc2cn(-c3ccccc3C)nn2)c1`: 2.4.
